Patent US20060172958A1, “Phospholipid scramblase 3” (priority 2003, published 2006)

Chains of the proteins cited; added tags and fusions are not shown.
UniProt Q9NRY6, whole entry F258V: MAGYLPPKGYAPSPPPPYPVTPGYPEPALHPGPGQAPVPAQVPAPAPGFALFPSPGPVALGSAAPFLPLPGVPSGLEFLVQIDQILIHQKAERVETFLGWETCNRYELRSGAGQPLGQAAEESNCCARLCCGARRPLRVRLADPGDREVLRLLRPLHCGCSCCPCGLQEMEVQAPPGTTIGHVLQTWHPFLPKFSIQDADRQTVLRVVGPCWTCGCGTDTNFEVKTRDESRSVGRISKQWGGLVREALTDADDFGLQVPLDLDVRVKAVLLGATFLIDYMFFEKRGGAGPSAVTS

Molecular target: PLS3(F258V) mutant (human) (UniProt Q9NRY6)
Assay: cell-based or functional assay

Bcl-B (untagged, from pcDNA-Bcl-B or pBcl-B-IRES-EGFP) (from UniProt Q9HD36 1-204)
cell death in GFP positive cells: 7.5%
